Source: PMC7906907, “Targeting STAT3 by a small molecule suppresses pancreatic cancer progression” (Oncogene, 2021)

By UniProt entry, the sequences of proteins in these tests, tags left out. Residues count along the entry.
UniProt P40763, 127-722 limits assumed: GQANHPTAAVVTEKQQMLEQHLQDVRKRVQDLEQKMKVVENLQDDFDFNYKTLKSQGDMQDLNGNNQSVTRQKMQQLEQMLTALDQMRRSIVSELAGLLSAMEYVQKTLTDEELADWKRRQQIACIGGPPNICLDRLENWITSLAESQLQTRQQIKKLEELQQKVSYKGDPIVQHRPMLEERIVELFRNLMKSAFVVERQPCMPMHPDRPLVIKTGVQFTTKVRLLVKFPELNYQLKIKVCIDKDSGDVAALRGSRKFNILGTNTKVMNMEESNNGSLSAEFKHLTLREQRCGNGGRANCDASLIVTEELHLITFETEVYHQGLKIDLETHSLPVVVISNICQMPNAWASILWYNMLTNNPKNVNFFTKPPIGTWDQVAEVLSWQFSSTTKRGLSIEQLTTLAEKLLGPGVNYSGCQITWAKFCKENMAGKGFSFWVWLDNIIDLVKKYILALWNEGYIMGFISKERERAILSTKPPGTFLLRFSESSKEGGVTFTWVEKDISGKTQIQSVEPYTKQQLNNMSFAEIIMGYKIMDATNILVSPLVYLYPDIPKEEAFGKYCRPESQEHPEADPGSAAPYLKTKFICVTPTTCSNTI

Target: His-STAT3^127-722 protein (Homo sapiens, UniProt P40763)
Test: Fluorescence polarization (FP) assay, STAT3-phosphopeptide interaction
Format: binding
Conditions: read-out: FP assay (IC50 μM); Supplementary Table 1; inhibition of STAT3 dimerization in FP assay

SMILES | IC50 [µM]
COc1cc2c(cc1C(=O)Nc1nc3c(C)cccc3s1)CCC1C(C)(C)C(=O)C(C#N)=CC21C (centres unmarked) | 8.33
COc1cc2c(cc1C(=O)Nc1ccc3cc[nH]c3c1)CCC1C(C)(C)C(=O)C(C#N)=CC21C (centres unmarked) | 6.38
COc1cc2c(cc1C(=O)Nc1ccc3cn[nH]c3c1)CCC1C(C)(C)C(=O)C(C#N)=CC21C (centres unmarked) | 6.79
COc1cc2c(cc1C(=O)Nc1ccc3ncsc3c1)CCC1C(C)(C)C(=O)C(C#N)=CC21C (centres unmarked) | 4.58
COc1cc2c(cc1C(=O)Nc1nc3ccccc3s1)CCC1C(C)(C)C(=O)C(C#N)=CC21C (centres unmarked) | 1.45
COc1cc2c(cc1C(=O)Nc1cccc3ncccc13)CCC1C(C)(C)C(=O)C(C#N)=CC21C (centres unmarked) | 8.41
COc1cc2c(cc1C(=O)Nc1ccc3[nH]ncc3c1)CCC1C(C)(C)C(=O)C(C#N)=CC21C (centres unmarked) | > 20

More lines, now with the values ahead:

IC50 [µM] | SMILES
7.71 | CCCNC(=O)c1cc2c(cc1OC)C1(C)C=C(C#N)C(=O)C(C)(C)C1CC2 (centres unmarked)
15.6 | COC(=O)c1cc2c(cc1OC)C1(C)C=C(C#N)C(=O)C(C)(C)C1CC2 (centres unmarked)
8.96 | COc1cc2c(cc1C(=O)N1CCCC1)CCC1C(C)(C)C(=O)C(C#N)=CC21C (centres unmarked)
8.23 | COc1cc2c(cc1C(=O)NC(C)C)CCC1C(C)(C)C(=O)C(C#N)=CC21C (centres unmarked)
6.14 | COc1cc2c(cc1C(=O)N1CCCCC1)CCC1C(C)(C)C(=O)C(C#N)=CC21C (centres unmarked)
1.88 | COc1cc2c(cc1C(=O)Nc1cccc3[nH]ccc13)CCC1C(C)(C)C(=O)C(C#N)=CC21C (centres unmarked)
1.01 | COc1cc2c(cc1C(=O)Nc1ncc([N+](=O)[O-])s1)CCC1C(C)(C)C(=O)C(C#N)=CC21C (centres unmarked)
> 20 | COc1cc2c(cc1C(=O)O)CCC1C(C)(C)C(=O)C(C#N)=CC21C (centres unmarked)
5.37 | COc1cc2c(cc1C(=O)N(C)c1ncc([N+](=O)[O-])s1)CCC1C(C)(C)C(=O)C(C#N)=CC21C (centres unmarked)
8.73 | COc1cc2c(cc1C(=O)Nc1ncc(C)s1)CCC1C(C)(C)C(=O)C(C#N)=CC21C (centres unmarked)
